# Results taken from patent US20260183363A1, “INHIBITION OF LUTEINIZING HORMONE (LH) ACTION AS TREATMENT OF PERIMENOPAUSAL AND POSTMENOPAUSAL SYMPTOMS AND COMPLICATIONS” (RIGSHOSPITALET, priority 2022, published 2026).
# Where two headings read alike, the source gives them in different places.
# How the values were obtained:
# [1] = system: men with various testicular diseases; experiment: hCG stimulation test in 356 men with testicular diseases; type: in vivo, human; settings: for PTH: 72 hours
# Experimental: 356 men with various testicular diseases who were all evaluated in our andrological outpatient clinic and referred for hCG stimulation test, were followed longitudinally with blood sampling at baseline and after 72 hours, as per standard protocol. […] The 356 men comprised of 110 patients with previous testicular cancer, 28 other types of previous cancer, 57 with gynecomastia, 44 infertile men, 54 men with hypogonadism and the remaining with various testicular/pituitary conditions. […] Serum FSH and LH levels were measured with Delfia, CV<5% for both. Serum and urine total calcium (CV 2.5%) and serum PTH (CV<4%) were all measured using Cobas 8000 while serum ionized calcium (CV 3%) was measured on ABL 837. Longitudinal assessment of blood- and urine samples (delta values) were calculated as fold change, relative to baseline for each person, with all samples' initial value starting at one. All analyses were analyzed with ANOVA with control/baseline as reference value and every p-value presented was adjusted for multiple comparisons with Dunnett's post hoc test.
# healthy men [2] = experiment: Injection of 5000 IU hCG in healthy men, adrenal/pituitary, thyroid and metabolic hormones; type: in vivo, human
# Experimental: 11 healthy men and 10 men with previous testicular cancer and hemi-orchiectomy and/or testicular radiation were invited to participate in a prospective clinical trial, receiving 5000 IU hCG (Pregnyl) intramuscularly. They were followed longitudinally with blood- and urine sampling at baseline and 2, 8, 24, 72 and 120 hours after injection. All samples were drawn while fasting, except after 8 hours. Sampling and subsequent injection at baseline and sampling at 24, 72, and 120 hours were done between 8.00 am and 9.30 am. All analyses were analyzed with ANOVA with control/baseline as reference value and every p-value presented was adjusted for multiple comparisons with Dunnett's post hoc test. However, evaluation of changes in QTc interval on ECGs was available only at two time-points and therefore statistically analyzed by paired T-test.
# healthy men [3] = type: in vivo, human
# Experimental: 11 healthy men and 10 men with previous testicular cancer and hemi-orchiectomy and/or testicular radiation were invited to participate in a prospective clinical trial, receiving 5000 IU hCG (Pregnyl) intramuscularly. They were followed longitudinally with blood- and urine sampling at baseline and 2, 8, 24, 72 and 120 hours after injection. All samples were drawn while fasting except after 8 hours. Sampling and subsequent injection at baseline and sampling at 24, 72, and 120 hours were done between 8.00 am and 9.30 am. Electro-cardiogram (ECG) was monitored at baseline and after 8 and 24 hours and QTc interval was calculated using Bazett's formula. Age, BMI and reproductive hormones on the 11 healthy men have previously been published in a baseline table. The inventors also investigated one person with an inactivating mutation in their Calcium Sensing Receptor […] heterozygote, resulting in Familial Hypocalciuric Hypercalcemia (FHH) who was evaluated in our andrological clinic fasting blood- and urine samples which were collected at baseline, 2, 24 and 72 hours after injection of 5000 IU hCG. […] Serum FSH and LH levels were also measured with Delfia, CV<5% for both. […] CTX1 (CV 8%) and P1NP (CV 8%) were both measured on IDSi10. Serum and urinal total calcium (CV 2.5%), creatinine (CV 5%), and phosphate (CV 6%), and serum calcitonin (CV 7%) and serum PTH (CV<4%) were all measured using Cobas 8000 while serum ionized calcium (CV 3%) was measured on ABL 837. Longitudinal assessment of blood- and urine samples (delta values) were calculated as fold change relative to baseline for each person with all samples' initial value starting at one. All analyses were analyzed with ANOVA with control/baseline as reference value. Every p-value presented was adjusted for multiple comparisons with Dunnett's post hoc test. However, evaluation of changes in QTc interval on ECGs was available only at two time points and therefore statistically analyzed using paired T-test.
# [4] = system: male wild type mice (C57BL/6); experiment: Brown fat mass in mice treated with LH or hCG for 10 days; type: in vivo; settings: high and repeated dosing
# Experimental: Eight weeks old male wild type mice (C57BL/6) caged at Biotest Facility, Trige, Denmark, were treated for 10 days with either vehicle (n=12; NaCl 0.9%×1 daily s.c.), LH (n=8; 66.7 IU/kg×1 daily s.c.), or hCG (n=8; 666.7 IU/kg, every other day, i.p.). At termination, blood and fat sampling was performed, animals were sacrificed and body weight was assessed. Danish Animal Experiments Inspectorate License no. 2019-15-0201-00236. All analyses of mice serum, urine, and organ weight were analyzed with ANOVA with control/baseline as reference value and every p-value presented was adjusted for multiple comparisons with Dunnett's post hoc test.
# [5] = system: male wild type mice (C57BL/6); experiment: Mice treated with LH, cinacalcet or hCG for 10 days; type: in vivo; settings: 10 days, data not shown
# Experimental: Eight weeks old male wild type mice (C57BL/6), caged at Biotest Facility, Trige, Denmark, were treated for 10 days with either: • vehicle (n=12; NaCl 0.9%×1 daily s.c.); • Cinacalcet (n=8; 30 mg/kg, ×1 daily), (Cinacalcet is in a class of medications called calcimimetics which works by signaling the body to produce less parathyroid hormone (PTH) in order to decrease the amount of calcium in the blood); • LH (n=8; 66.7 IU/kg×1 daily s.c.); • LH in combination with Cinacalcet (n=8; 66.7 IU/kg×1 daily s.c+cinacalcet orally 30 mg/kg once daily); or • hCG (n=8; 666.7 IU/kg, every other day, i.p.).
# At termination, blood and urine sampling was performed, animals were sacrificed and body weight was assessed. Serum PTH was measured using commercially available ELISA kit Mouse PTH 1-84 from Immutopics. Plasma and urinary calcium and creatinine was measured using Stanbio LiquiColor (Arzenazo III) product numbers 0155 and 0430, respectively. All analyses of mice serum, urine, and organ weight were analyzed with ANOVA with control/baseline as reference value. Each p-value presented was adjusted for multiple comparisons with Dunnett's post hoc test.
substance,measurement,setting,value
"hCG: human chorionic gonadotropin (Pregnyl), LHCGR agonist with longer serum half-life than LH",serum ionized calcium levels (mean),"[1]; 72 hours after injection, other value 1.208, no change",1.209 mmol/L
same,serum PTH (mean),"[1]; 72 hours after injection, other value 5.39, no change",5.42 pmol/L
same,PTH,[1]; men with baseline PTH above normal range (>6.9 pmol/L),"significant, persistent drop"
same,calcium,[1]; men with deficient increase in testosterone (3-6 nmol/L),modest decrease in calcium
same,calcium,[1]; men with insufficient increase in testosterone (<3 nmol/L),corresponding drop in calcium
same,PTH,[1]; men with normal baseline PTH (≤6.9 pmol/L),"significant, persistent increase"
same,serum calcium,[1]; men with sufficient increase in testosterone (6-12 or >12 nmol/L),increase in serum calcium
same,ACTH suppressed,healthy men [2]; in vivo,17%
same,T3 and T4 lower after hCG stimulation,healthy men [2]; in vivo,5-8%
same,TSH drop,healthy men [2]; in vivo,30%
same,induced production of 17 hydroxyprogesterone,healthy men [2]; in vivo,100%
same,induced production of androstendione,healthy men [2]; in vivo,> 50%
same,suppression of IGFBP3,healthy men [2]; in vivo,3%
same,suppression of aldosterone,healthy men [2]; in vivo,38%
same,suppression of cortisol,healthy men [2]; in vivo,27%
same,increase in fasting insulin,healthy men [2]; persistent (after 120 hours),up to 100%
same,increase in serum IGF1,healthy men [2]; persistent (after 120 hours),18%
same,increase in CCCR,healthy men [3]; 8 hours after injection,2.5 fold
same,increase in U-Calcium/U-creatinine ratio,healthy men [3]; 8 hours after injection,2.4 fold
same,"serum 1,25-dihydroxy vitamin D increase",healthy men [3]; 72 hours after injection,69%
same,"serum 1,25-dihydroxy vitamin D increase",healthy men [3]; 120 hours after injection,89%
same,Total calcium,healthy men [3]; after 24 hours,significantly lower
same,albumin levels,healthy men [3]; after 24 hours,significant reduction
same,estradiol peak increase,"healthy men [3]; after 24 hours, relative to baseline",3.5 fold
same,testosterone peak increase,"healthy men [3]; after 72 hours, relative to baseline",2.2 fold
same,serum PTH,healthy men [3]; after hCG injection,immediate increase
same,CCCR elevated,healthy men [3]; after two hours,36%
same,U-Calcium/U-creatinine ratio elevated,healthy men [3]; after two hours,46%
same,serum concentration of ionized- and total calcium,"healthy men [3]; early after injection, not statistically significant",concomitant drop
same,"Serum calcitonin, early phase",healthy men [3]; early hypercalciuric phase,elevated during the early hypercalciuric phase
same,increase in serum CTX1,healthy men [3]; fasting serum,24%
same,"Serum calcitonin, late phase",healthy men [3]; from 24 hours and onwards,lower than baseline
same,QTc interval,healthy men [3]; in vivo,407 ms
same,QTc interval versus baseline,healthy men [3]; in vivo,no significant difference
same,serum 25-OHD,healthy men [3]; in vivo,unchanged
same,serum- or urinary phosphate or phosphate excretion,healthy men [3]; in vivo,no significant change
same,LH and FSH,"healthy men [3]; serum, after hCG injection",decrease
same,urinary excretion (calcium) higher than baseline levels,healthy men [3]; throughout the study period,50%
same,brown fat mass,[4],reduced brown fat mass significantly
same,"calcium excretion, effect of treatment",[5],did not affect calcium excretion
